The list shows a part of the results, in another mix than the full data. Activity calls are given as the source filed them.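 How the source made its calls: active means inhibition above the mean inhibition of all tested compounds plus 3 SD (cut at about 73% in these data); inactive means the rest.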
What follows are compounds tested against Nuclear receptor subfamily 5 group A member 2 (Homo sapiens) (UniProt O00482) (assay: LRH-1 (NR5A2) inverse agonists, primary screen, cell-based, luminescence, HEK293T, StAR-luciferase reporter (AID 602396;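 further: 0% = DMSO wells and 100% = reporter-only cells lacking LRH-1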)). Conditions: LRH-1 transfected, 24 h, at 3.6 µM, stronger effect = higher value.

Amino acid sequences for entries named in this document (tags omitted).
UniProt O00482, whole entry: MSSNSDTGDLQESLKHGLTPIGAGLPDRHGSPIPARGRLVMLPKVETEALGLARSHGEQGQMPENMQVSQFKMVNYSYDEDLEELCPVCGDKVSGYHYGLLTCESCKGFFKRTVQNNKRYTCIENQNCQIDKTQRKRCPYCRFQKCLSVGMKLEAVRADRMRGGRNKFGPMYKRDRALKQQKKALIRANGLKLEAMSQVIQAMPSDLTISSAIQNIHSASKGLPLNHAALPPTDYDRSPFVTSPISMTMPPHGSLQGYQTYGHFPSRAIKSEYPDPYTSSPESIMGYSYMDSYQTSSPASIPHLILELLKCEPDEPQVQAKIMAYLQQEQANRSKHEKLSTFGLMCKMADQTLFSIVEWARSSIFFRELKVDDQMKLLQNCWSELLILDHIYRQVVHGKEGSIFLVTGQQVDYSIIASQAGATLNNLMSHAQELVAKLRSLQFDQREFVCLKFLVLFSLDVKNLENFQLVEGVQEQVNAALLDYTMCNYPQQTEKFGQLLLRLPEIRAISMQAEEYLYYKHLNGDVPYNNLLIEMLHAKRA

Row | Compound | inhibition
1 | CCC(=O)N(c1ccccc1)C1(COC)CCN(CCc2cccs2)CC1 | inactive: 1.92%
2 | CCC(=O)N(c1ccccc1)C1(COC)CCN(CCn2nnn(CC)c2=O)CC1 | inactive: 2.63%
